In publication PMC7913148, “Anti-Cholinesterase Combination Drug Therapy as a Potential Treatment for Alzheimer’s Disease” (Brain Sciences, 2021) one finds IC50 data, which are given here for one compound.

Chains of the proteins cited; added tags and fusions are not shown. Residues count along the entry.
UniProt P22303, 32-614: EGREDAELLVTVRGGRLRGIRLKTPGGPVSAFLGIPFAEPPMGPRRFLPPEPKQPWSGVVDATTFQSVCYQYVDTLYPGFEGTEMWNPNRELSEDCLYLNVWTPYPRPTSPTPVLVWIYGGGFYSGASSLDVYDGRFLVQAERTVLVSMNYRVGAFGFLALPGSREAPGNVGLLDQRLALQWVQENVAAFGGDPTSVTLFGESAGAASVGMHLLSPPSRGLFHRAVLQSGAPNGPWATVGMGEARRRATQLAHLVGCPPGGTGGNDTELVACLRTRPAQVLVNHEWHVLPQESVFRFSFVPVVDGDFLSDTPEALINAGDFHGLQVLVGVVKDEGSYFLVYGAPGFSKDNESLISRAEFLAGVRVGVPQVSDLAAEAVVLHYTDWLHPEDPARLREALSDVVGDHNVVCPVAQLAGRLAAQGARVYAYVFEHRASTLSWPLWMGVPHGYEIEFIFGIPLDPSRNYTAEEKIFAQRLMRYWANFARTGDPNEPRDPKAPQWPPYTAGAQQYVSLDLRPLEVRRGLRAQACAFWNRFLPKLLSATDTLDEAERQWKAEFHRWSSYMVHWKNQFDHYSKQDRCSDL

Usually IC50 stands for the concentration at which inhibition is half-maximal.

Structures can show the parent of a compound that is named as a salt.

In assay [1] the target is recombinant human acetylcholinesterase (hAChE) (Homo sapiens, UniProt P22303). Description: biochemical.
For assay [2], the target named is AChE within differentiated SH-SY5Y neuroblastoma cells (Homo sapiens, UniProt P22303). The assay is described as follows: cell-based.

With `COc1ccc2cc3[n+](cc2c1OC)CCc1cc2c(cc1-3)OCO2` [Ber, berberine hydrochloride], the IC50 in assay [1] was found to be 3.13 µM; in assay [2], 4.84 µM.
